Tests used:
[1] = test system: social defeat stress mice; experiment: Golgi staining, spine density in brain regions, social defeat stress model; format: in vivo; details: 10 mg/kg i.p., 8 days after injection; for spine density of the nucleus accumbens: density increased by stress
Procedure: A social defeat stress model of depression was prepared by bringing C57/B6 male mice into contact with ICR male mice (large aggressive mice) for 10 consecutive days to apply a stress called a “social defeat stress” in accordance with the previous report (Non Patent Literature 19). […] Specifically, an increase in immobility time was found in each of a tail suspension test (TST) and a forced swimming test (FST).
The preparation of the animal model of depression and the administration of the agent were specifically performed as described below (FIG. 3A). Male C57/B6 mice (7-week-old, Japan SLC, Inc., Hamamatsu, Japan) and ICR mice (9-week-old, Japan SLC, Inc., Hamamatsu, Japan) were used. The mice were given free access to water and feed. A social defeat stress was applied by housing one C57/B6 mouse with one ICR mouse for 10 days.
The antidepressant effects of the agent were investigated by behavioral tests such as the TST, the PST, the LMT, and a 1% sucrose preference test (SPT) (FIG. 3A). The 1% sucrose preference test (SPT) was performed on 1 day and 6 days after the injection of ketamine. Each of the TST and the PST was performed on 2 days and 7 days after the injection of ketamine. The TST was performed as described below. First, the mice were taken out from cages, and then a small piece of an adhesive tape was bonded onto a portion approximately 2 cm away from the tip of the tail of the mice. A small hole was opened in the small piece, and the mice were each fixed upside down on a hook through the small hole. The immobility time of each mouse was recorded for 10 minutes. Mice were considered immobile only when they hung passively and completely motionless. The immobility time increases in a depressive state. The PST was performed as described below. First, the mice were placed individually in a cylinder (diameter: 23 cm; height: 31 cm) containing 15 cm of water, maintained at 22 to 24 deg C. The mice were tested in an automated forced-swimming apparatus using SCANET MV-40 (MELQUEST Co., Ltd., Toyama, Japan). The immobility time was calculated as a value obtained by subtracting active time from total time, using the analysis software of the apparatus. Cumulative immobility time was recorded over 6 minutes during a test period. The LMT was performed as described below. First, the mice were placed in experimental cages (length×width×height: 560×560×330 mm). The locomotor activity of the mice was counted with SCANET MV-40, and the cumulative exercise of the mice was recorded for 60 minutes. The cages were cleaned between testing session. The immobility time increases in a depressive state. The SPT was performed by preparing general drinking water and a 1% sucrose solution so that the mice had free access thereto, and measuring the ratio of the amount of the sucrose solution consumed. The consumption of the sucrose solution, which is a reward response, reduces in a depressive state. The mice were decapitated 5 days after the injection of ketamine, and the brain was quickly dissected out and subjected to Golgi staining. A spine density was quantitatively evaluated by observation with a KEYENCE microscope (BZ-9000, Osaka, Japan).

NMDA receptor = details: cited from earlier work

SMILES	spine density of the frontal cortex [1]	spine density of the hippocampal dentate gyrus [1]	spine density of the hippocampus CA1 region [1]	spine density of the hippocampus CA3 region [1]	spine density of the striatum [1]	spine density of the nucleus accumbens [1]	potency at the receptor (NMDA), fold less potent than S(+)-ketamine (NMDA receptor)	affinity for the NMDA receptor, fold greater than R-isomer (NMDA receptor; Non Patent Literature 12)
CN[C@@]1(c2ccccc2Cl)CCCCC1=O.Cl [R(−)-ketamine]	significantly improved the decreased density of spine	significantly improved the decreased density of spine	no apparent change in spine density	significantly improved	no apparent change in spine density	significantly improved	2-4 fold	–
CN[C@]1(c2ccccc2Cl)CCCCC1=O [S(+)-ketamine]	significantly improved the decreased density of spine	significantly improved the decreased density of spine	no apparent change in spine density	significantly improved	no apparent change in spine density	significantly improved	–	approximately 4 fold

— patent US11426367B2, “Methods of treating substance abuse” (Perception Neuroscience, Inc., priority 2018, dated 2022)
